The values that follow come from US8940742B2, “Heterocyclic compounds and uses thereof” (Infinity Pharmaceuticals, Inc., priority 2012, dated 2015).

By UniProt entry, the sequences of proteins in these tests, tags left out. Where a name states a change or a piece, a line headed by the entry shows the natural chain unless it says otherwise.
UniProt P48736: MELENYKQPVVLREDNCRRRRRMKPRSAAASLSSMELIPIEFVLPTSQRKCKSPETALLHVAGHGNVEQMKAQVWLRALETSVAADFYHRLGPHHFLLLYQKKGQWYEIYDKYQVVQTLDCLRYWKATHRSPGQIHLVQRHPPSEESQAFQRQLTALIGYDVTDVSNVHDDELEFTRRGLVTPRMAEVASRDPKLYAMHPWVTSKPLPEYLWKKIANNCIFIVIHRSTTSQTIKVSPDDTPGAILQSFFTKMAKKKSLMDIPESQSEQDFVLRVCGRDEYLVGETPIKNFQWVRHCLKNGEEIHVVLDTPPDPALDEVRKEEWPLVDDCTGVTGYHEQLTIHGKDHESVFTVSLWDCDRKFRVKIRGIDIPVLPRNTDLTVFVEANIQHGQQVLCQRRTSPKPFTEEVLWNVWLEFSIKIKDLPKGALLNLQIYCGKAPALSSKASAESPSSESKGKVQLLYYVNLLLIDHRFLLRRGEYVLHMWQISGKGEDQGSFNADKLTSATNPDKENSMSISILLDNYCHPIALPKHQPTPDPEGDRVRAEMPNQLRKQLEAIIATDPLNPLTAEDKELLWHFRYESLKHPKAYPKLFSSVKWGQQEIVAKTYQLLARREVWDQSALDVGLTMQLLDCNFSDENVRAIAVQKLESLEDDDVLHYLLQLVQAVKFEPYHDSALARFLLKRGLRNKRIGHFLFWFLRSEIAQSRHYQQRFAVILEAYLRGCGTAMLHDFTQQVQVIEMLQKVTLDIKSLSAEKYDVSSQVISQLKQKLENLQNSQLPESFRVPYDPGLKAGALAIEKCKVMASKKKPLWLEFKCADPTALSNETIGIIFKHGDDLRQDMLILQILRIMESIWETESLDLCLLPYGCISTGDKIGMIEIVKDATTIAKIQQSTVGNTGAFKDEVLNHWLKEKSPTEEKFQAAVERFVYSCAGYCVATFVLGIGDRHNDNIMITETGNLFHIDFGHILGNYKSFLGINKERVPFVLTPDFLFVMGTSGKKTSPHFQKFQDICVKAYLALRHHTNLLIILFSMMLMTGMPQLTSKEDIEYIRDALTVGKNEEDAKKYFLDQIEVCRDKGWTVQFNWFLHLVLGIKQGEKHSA
UniProt Q9JHG7: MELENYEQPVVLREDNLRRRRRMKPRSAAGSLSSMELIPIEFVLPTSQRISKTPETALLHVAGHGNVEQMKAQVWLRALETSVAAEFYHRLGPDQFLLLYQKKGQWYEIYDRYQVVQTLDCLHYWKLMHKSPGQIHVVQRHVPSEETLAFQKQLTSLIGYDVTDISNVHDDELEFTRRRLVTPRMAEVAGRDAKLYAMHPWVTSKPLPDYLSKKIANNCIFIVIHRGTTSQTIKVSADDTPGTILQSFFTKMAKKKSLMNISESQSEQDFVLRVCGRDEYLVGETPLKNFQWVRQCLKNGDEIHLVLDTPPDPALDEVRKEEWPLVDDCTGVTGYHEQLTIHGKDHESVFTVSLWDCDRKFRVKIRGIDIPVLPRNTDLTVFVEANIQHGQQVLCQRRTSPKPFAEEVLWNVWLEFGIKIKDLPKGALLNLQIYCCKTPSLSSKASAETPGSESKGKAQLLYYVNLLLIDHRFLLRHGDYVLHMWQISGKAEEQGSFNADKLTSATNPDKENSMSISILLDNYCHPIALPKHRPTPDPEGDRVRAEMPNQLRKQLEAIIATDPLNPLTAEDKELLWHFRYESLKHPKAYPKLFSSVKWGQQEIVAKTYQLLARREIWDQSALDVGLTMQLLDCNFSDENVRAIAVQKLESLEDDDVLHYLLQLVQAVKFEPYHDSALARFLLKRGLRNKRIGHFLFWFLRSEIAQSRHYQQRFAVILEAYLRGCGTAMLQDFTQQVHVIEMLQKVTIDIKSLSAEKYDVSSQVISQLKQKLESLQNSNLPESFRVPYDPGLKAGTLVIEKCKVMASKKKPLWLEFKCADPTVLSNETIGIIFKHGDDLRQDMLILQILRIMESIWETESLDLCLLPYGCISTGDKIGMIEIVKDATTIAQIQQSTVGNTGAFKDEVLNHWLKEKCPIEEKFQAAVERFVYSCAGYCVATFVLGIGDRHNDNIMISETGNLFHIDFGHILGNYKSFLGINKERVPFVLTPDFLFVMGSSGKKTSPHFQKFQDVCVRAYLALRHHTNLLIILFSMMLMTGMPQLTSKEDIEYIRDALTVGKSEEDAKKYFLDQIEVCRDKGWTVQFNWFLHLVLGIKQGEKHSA

For orientation: IC50 means the concentration at which inhibition is half-maximal. Low readings indicate inhibition by little substance, high ones a need for much substance.

The target in one assay is T1, PI3K γ (Homo sapiens, UniProt P48736).
T1 construct: purchased Millipore
Description: PI3-Kinase Promega ADP-Glo Max assay. Type of assay: biochemical. How it is done: Promega ADP-Glo Max assay kit (Cat. No. V7002) was utilized to determine IC50 values for α, β, δ and γ isoforms of human Class I PI3 kinases (Millipore). […] Reactions were incubated at room temperature for 2 hours followed by addition of 25 uL of stop solution. After a 40-minute incubation at room temperature, 50 uL of Promega detection mix was added followed by incubation for 1 hour at room temperature. Plates were then read on Envision plate reader in luminescence mode. Data was converted to % inhibition using the following equation below:
[formula] where S is the sample luminescence, Pos is a positive control without added PI3K, Neg is the negative control without added compound. Data was then plotted as % inhibition vs compound concentration.
Certain compounds provided herein were tested in PI3-Kinase Promega Assay using procedures as described above to determine IC50 values for α, β, δ and/or γ isoforms.
A general note: ADP-Glo first removes unused ATP, then detects ADP through luciferase.

A further assay has as its target T2, Raw264.7 p110 γ (Mus musculus, UniProt Q9JHG7).
T2 construct: reduction of phospho-AKT in stimulated RAW 264.7 cells; endogenous in cells; host or cells: RAW264.7 macrophages
Description: Raw264.7 p110 γ cellular assay (phospho-AKT). The format is cell-based. The text has this: (b) PI3K-γ Selective Assay
Briefly, serum-starved PAW264.7 cells are stimulated with a known GPCR agonist C5a. […] Cells can be treated with test compounds prior to, simultaneously with, or subsequent to the stimulation by C5a. RAW 264.7 cells respond to the complement component fragment C5a through activation of the C5a receptor, and the C5a receptor activates macrophages and induces cell migration.

Each structure is given as a SMILES string.

With `C[C@H](NC(=O)c1c(N)nn2cccnc12)c1cc2cccc(Cl)c2c(=O)n1-c1ccccc1` [Compound 70], the IC50 against PI3K γ and on Raw264.7 p110 γ was less than 100 nM in each case.
